# Values quoted from earlier work in paper PMC12557437, “Research towards selective inhibition of the CLK3 kinase” (Beilstein Journal of Organic Chemistry, 2025).
# Amino acid sequences for entries named in this document (tags omitted). A change or cut given only in a name is not applied to a line headed by its entry.
# UniProt P22518: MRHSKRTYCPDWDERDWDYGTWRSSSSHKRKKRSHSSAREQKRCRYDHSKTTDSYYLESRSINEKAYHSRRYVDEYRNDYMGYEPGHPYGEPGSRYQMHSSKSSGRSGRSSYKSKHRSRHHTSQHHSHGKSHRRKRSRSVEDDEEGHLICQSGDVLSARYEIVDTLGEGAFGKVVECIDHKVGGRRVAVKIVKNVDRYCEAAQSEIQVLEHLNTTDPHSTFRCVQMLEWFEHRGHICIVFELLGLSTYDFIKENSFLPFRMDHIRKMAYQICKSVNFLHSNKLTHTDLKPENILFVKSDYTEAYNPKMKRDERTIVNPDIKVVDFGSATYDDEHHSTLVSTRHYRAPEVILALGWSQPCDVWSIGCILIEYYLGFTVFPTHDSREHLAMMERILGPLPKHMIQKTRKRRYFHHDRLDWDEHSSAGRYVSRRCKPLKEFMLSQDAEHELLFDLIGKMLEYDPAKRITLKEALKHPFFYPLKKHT
# UniProt O35491, whole entry: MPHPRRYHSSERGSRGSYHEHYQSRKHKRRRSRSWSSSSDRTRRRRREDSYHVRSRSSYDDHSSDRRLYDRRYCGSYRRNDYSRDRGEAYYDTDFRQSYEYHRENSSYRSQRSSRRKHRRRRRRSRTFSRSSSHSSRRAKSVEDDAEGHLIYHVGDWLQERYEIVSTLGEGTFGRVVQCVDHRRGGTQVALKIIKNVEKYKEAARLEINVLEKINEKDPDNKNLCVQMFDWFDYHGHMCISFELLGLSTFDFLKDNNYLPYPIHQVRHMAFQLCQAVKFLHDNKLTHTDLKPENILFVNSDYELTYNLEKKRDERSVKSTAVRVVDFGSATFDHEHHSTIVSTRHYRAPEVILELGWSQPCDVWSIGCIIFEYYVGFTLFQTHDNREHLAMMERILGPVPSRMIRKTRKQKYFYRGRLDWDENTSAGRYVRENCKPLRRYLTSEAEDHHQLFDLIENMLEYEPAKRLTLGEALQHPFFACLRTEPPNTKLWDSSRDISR
# How the values were obtained:
# [1] = test system: CLK4; details: human protein kinase; ref 17 (SM08502), 20-21 (CX-4945), 24 (DB18); cited from earlier work
# [2] = target: T1, Mm_CLK3 (Mus musculus, UniProt O35492); set-up: method as in PMID 33422908, PMID 36234686; details: data taken from ref 23-24; cited from earlier work
# T1 sequence (O35492 1-490): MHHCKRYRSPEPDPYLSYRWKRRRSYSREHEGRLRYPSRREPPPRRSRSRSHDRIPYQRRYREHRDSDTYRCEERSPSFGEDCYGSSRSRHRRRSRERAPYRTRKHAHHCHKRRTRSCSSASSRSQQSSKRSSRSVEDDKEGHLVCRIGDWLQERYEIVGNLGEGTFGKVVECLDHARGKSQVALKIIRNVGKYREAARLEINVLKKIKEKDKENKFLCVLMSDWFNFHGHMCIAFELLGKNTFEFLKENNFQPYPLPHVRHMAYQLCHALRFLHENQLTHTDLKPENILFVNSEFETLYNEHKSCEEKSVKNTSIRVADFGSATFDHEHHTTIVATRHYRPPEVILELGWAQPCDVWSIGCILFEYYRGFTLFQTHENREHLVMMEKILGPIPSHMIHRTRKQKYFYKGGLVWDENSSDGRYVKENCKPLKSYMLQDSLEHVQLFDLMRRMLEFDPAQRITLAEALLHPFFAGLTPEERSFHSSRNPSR
# [3] = target: Mm_CLK1 (Mus musculus, UniProt P22518); set-up: method as in PMID 33422908, PMID 36234686; details: data taken from ref 23-24; cited from earlier work
# [4] = test system: CLK2; details: human protein kinase; ref 17 (SM08502), 19 (T3), 20-21 (CX-4945), 24 (DB18); cited from earlier work
# [5] = test system: CLK3; details: human protein kinase; ref 17 (SM08502), 19 (T3), 20-21 (CX-4945), 24 (DB18); cited from earlier work
# [6] = test system: CLK1; details: human protein kinase; ref 17 (SM08502), 19 (T3), 20-21 (CX-4945), 24 (DB18); cited from earlier work
# [7] = test system: DYRK kinases; details: cited from earlier work
# [8] = test system: DYRK1A; details: human protein kinase; ref 17 (SM08502), 19 (T3), 20-21 (CX-4945), 24 (DB18); cited from earlier work
# [9] = target: Mm_CLK2 (Mus musculus, UniProt O35491); set-up: method as in PMID 33422908, PMID 36234686; details: data taken from ref 23-24; cited from earlier work
smiles,measurement,setting,value
Cc1ccc(-n2cc(COc3cccc4cnc(Nc5cccc(Cl)c5)nc34)nn2)c([N+](=O)[O-])c1 [DB18],IC50,[1],0.02 nM
same,IC50,[2],1280 nM
same,IC50,[3],11 nM
same,IC50,[4],0.027 nM
same,IC50,[5],1.28 nM
same,IC50,[6],0.011 nM
same,inhibition of DYRK kinases,[7],inactive
same,IC50,[8],> 100 nM
same,IC50,[9],27 nM
